A word on the Kd: it is the constant that tells how readily two partners part at equilibrium. Low values mean higher affinity, high ones lower affinity.

The chains behind the UniProt entries cited, without tags or fusion partners.
UniProt P21728, whole entry: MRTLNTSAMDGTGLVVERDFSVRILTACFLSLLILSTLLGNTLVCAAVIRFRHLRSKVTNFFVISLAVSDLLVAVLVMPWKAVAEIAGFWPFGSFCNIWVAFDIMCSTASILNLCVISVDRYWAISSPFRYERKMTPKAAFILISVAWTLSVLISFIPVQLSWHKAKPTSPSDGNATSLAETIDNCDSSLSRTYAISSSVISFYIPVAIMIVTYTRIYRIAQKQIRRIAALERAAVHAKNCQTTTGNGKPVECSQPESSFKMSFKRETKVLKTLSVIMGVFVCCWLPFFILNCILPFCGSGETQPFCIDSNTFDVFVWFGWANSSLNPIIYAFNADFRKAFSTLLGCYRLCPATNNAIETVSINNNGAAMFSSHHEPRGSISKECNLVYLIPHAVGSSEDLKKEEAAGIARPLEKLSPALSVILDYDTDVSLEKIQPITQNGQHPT

The record followed here is US7078189B2, “Preparing membrane receptors from extracellular baciloviruses” (priority 1997, dated 2006).

This experiment addresses D1-dopaminergic receptor (Homo sapiens, UniProt P21728). Kind of experiment: Saturation assay of D1-dopaminergic receptor (D1-R) expressed in viral particles. The conditions noted are these: D1 in extracellular baculoviruses.

The substance “[^125I]-R(+)SCH-23390 [[^125I]-SCH23390]” showed a Kd (0.02-3 nM [125I]-R(+)SCH-23390, non-specific binding with 10 μM haloperidol) of 0.118 ± 0.063 nM. Also, under “[125I]-SCH23390 saturation”, the BMax is recorded as 5.21 ± 0.84 pmol/mg of protein.
